Earlier results as cited in patent US12685983B2, “Benefit agent delivery system” (ITC Limited, priority 2020, dated 2026).

Details: cited from earlier work

In the case of `CCN(CC)CC` [Triethyl amine], the LogP value is listed as 1.64.
